# Measured values taken from USRE45173E1, “Inhibitors of CYP 17” (Novartis AG, priority 2009, dated 2014).
# Protein sequences, listed by entry. Tags and fused reporters are not part of them.
# UniProt P05093, whole entry: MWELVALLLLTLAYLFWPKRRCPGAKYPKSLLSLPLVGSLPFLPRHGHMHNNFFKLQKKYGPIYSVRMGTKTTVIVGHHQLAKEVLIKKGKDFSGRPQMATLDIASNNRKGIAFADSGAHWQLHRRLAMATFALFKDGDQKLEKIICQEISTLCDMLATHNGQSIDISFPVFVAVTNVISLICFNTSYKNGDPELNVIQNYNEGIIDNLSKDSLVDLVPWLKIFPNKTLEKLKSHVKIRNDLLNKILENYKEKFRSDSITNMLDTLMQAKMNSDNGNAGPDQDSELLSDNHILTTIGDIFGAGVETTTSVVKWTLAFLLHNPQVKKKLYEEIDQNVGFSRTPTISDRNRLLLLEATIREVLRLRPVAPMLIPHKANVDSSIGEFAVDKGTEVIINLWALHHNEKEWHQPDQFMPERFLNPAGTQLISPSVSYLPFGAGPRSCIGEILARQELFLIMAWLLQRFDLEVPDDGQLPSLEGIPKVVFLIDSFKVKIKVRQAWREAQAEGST
# Target: recombinant human CYP17 enzyme (Homo sapiens (Human), UniProt P05093)
# Assay: Cytochrome P450, 17-20 lyase (CYP17-lyase) assay, tritiated acetic acid release from 17-α-hydroxy pregnenolone [21-3H]
# Type: biochemical
# Details: read-out: Lyase IC 50 nM Human/Rat (Human); human CYP17, substrate 0.25 μM; tested form: TFA
# Text: Assay method was adopted from a published protocol with some modifications to suit our requirements (Dmitry N Grigoryev et al, Analytical Biochemistry, (1999) 267, 319-330). […] Chloroform extraction removes the radioactive steroids and acetic acid is taken into aqueous layer. The tritiated acetic acid released in the assay thus extracted is quantified to determine the enzyme activity. […] The purified cell membrane preparations were used as the source for Human CYP17 enzyme. […] O, Nijar, et al., J Med Chem, (1998) 41, 902-912). […] Km for this substrate was determined by monitoring the tritiated acetic acid release as a function of substrate concentration. […] For the Km determination, the data was fit to a hyperbolic equation (Graphpad Prism® software IV). […] (Dmitry N. Grigoryev et al, Analytical Biochemistry (1999) 267, 319-330) […] NADPH is used at a final concentration of 4.2 mM. Total reaction volume was made up to 50 μL with 50 mM Phosphate buffer pH 7.5. The reaction mixture was incubated at room temperature for 90 minutes with gentle shaking. The reaction was stopped by the addition of 100 μL of buffer. […] The radioactivity was measured in a 1450 MicroBeta TriLux™ scintillation counter from Wallac-Perkin Elmer®, USA. […] Percent lyase activity in presence of inhibitor was calculated using the formula given below. […]
smiles,measurement,value
Cc1ccncc1N1CCN(c2cn(C)c3ccccc23)C1=O,IC50,173 nM
